Screening data as filed in PubChem BioAssay.
In the library only some 13% were active in any assay of this set; here they are far more common.
ALDH1A1 inh: ALDH1A1 (human) enzyme inhibition; P00352; Purified ALDH1A1, NADH fluorescence, propionaldehyde substrate; Potency, µM (highest dose often 75.3 µM), for inactives: at the top dose activity, negative = inhibition, actives largely listed as inhibitors; hit rate 7.3% among 220,000; AID 1030; active = well fitted inhibition curve with a large enough effect, not every such curve was filed as active; inconclusive = small, poorly fitted or top-dose-only effect, or another doubt; inactive = no such curve, though single readings can be large or run the other way;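 also: potency is read from the fitted curve at half-maximal effect; plate controls were no enzyme wells and a reference inhibitor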
miR-21 reporter: miR-21 reporter, rising signal | HeLa miR-21 FLuc reporter, luciferase, 48 h | Potency, µM (top dose mostly 38.3 µM), inactives show at the top dose reporter change, positive = more light | 340,000 tested, under 10 active | AID 2288; active = well fitted rising curve with a large enough effect; inconclusive = small, poorly fitted or top-dose-only effect; inactive = no such curve, though single readings can be large or run the other way;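 further: % of control where 0% means no effect; miR-21 action dims this reporter so a rising signal means less miR-21 action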
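Compounds were titrated across several concentrations (up to approximately 40 uM) and incubated 48 hours with HeLa miR-21-FLuc reporter cells (miR-21 target sequence downstream of FLuc, endogenous miR-21). Readout was firefly luciferase luminescence after lytic detection reagent.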
Sfp inh: blocks B. subtilis Sfp PPTase activity. AID 1490. Q9F4F7. Biochemical Sfp PPTase activity, qHTS. hit rate 3.5% among 310,000. Potency, µM, for the others: max response, negative = inhibition, usual class: inhibitors; active = well fitted inhibition curve with a large enough effect; inconclusive = small, poorly fitted or top-dose-only effect, or another doubt; inactive = no such curve, though single readings can be large or run the other way;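 also: the enzyme is Sfp with the accession as filed and its product quenches rhodamine fluorescence; potency is read from the fitted curve at half-maximal effect; 0% = enzyme reaction without inhibitor and -100% = no enzyme wells; top concentration of the series not given in the record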
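With Hepes-Na pH 7.6 buffer containing 10 mM MgCl2, Sfp (15 nM) modified BHQ-2-YbbR (12.5 uM) using rhodamine-CoA (5 uM). Two reads 30 minutes apart at 525/598 nm yielded each well's rate.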
LMNA splice mod: modulators of lamin A splicing; AID 1487; HeLa LMNA splicing GFP/RFP minigene ratio, 48 h; Potency, µM (highest dose often 46.1 µM), for inactives: at the highest dose ratio change, negative = inhibition, actives largely listed as inhibitors; hit rate 0.01% among 200,000; active = well fitted inhibition curve with a large enough effect in the signal ratio, with a control signal flat, not every such curve was filed as active; inconclusive = small, poorly fitted or top-dose-only effect, or effect the other way, or a change in a side signal; the % refers to the signal ratio; also: potency is read from the fitted curve at half-maximal effect; % is scaled to controls: 0 for no effect and ±100 for the full control effect
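S3 HeLa cells stably expressing lamin A-EGFP splicing minigene plus DsRed2, 600 cells/well, 48 h compound exposure at 37C. Laser-scanning cytometry; analysed as GFP (500-530 nm)/RFP (575-640 nm) total intensity ratio; 0.5% DMSO vehicle.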
JMJD2E inh: blocks human JMJD2E demethylase activity; hit rate 1.6% among 230,000; Potency, µM (doses to about 57.1 µM), inactives show at the top dose activity change, negative = inhibition, usual class: inhibitors; B2RXH2; AID 2147; JMJD2E catalytic domain, FDH-coupled NADH fluorescence (FDH is formaldehyde dehydrogenase);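 also: potency is read from the fitted curve at half-maximal effect; 0% = wells with enzyme and -100% = buffer wells without enzyme; nearly all actives have a fitted effect of over 50% in size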
G9a inh: G9a (human) methyltransferase inhibition. hit rate 8.8% among 350,000. G9a H3K9 monomethylation, AlphaScreen, 2 h. Q96KQ7. Potency, µM (highest dose often 102 µM), for the others: top-dose activity, negative = inhibition, usual class: inhibitors; also: potency is read from the fitted curve at half-maximal effect; % is scaled to controls: 0 for no effect and ±100 for the full control effect; nearly all actives have a fitted effect of over 75% in size
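Readings reflect AlphaScreen signal from monomethyl-H3K9 antibody detection. HMT at 20 nM; substrate b-H3K9 500 nM; cofactor SAM 20 uM; 2 h RT reaction; compounds tested as titrations in qHTS with 15 min preincubation.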
Starred values were filed as active, the others as inactive; u = inconclusive; x = no result given; [ ] = another dose, or the depositor's remark. Unless noted, calls follow the shape of the dose curve; as a rule, active = well fitted curve in the direction sought with a large enough effect; inconclusive = small, poorly fitted or top-dose-only effect, or another doubt; inactive = no such curve, though single readings can be large; an effect the other way counts as inactive or inconclusive.

miR-21 reporter	ALDH1A1 inh	Sfp inh	G9a inh	LMNA splice mod	JMJD2E inh	structure
9%	x	x	-39%[59 µM]	x	x	Cc1ccc(S(=O)(=O)c2nc(-c3ccco3)oc2SCc2ccccc2Cl)cc1
-24%	x	x	5%[59 µM]	x	x	O=C(Cn1nnc(-c2ccccc2Cl)n1)Nc1ccc(Br)cc1
-4%	16µM*	u	u	u	1%	Cc1ccccc1N1CC(C(=O)Nc2nnc(SCC(=O)Nc3nccs3)s2)CC1=O (stereo not given)
-1%	x	50µM*	-4%[12.7 µM]	x	x	COCCNC(=O)CSc1nnc(NC(=O)C2CC(=O)N(c3ccccc3OC)C2)s1 (stereo not given)
-1%	x	-14%	u	x	5%	Cc1ccc(S(=O)(=O)N/N=C2/CC(=O)CC(C)(C)C2)cc1[N+](=O)[O-]
-8%	u	16%	-4%	x	5%	Cc1ccc(S(=O)(=O)N2CCC(C)CC2)cc1[N+](=O)[O-]
-2%	-1%	5%	u	-10%[46 µM]	4%	O=S(=O)(NN=C1CCCCC1)c1ccccc1
-5%	6.3µM*	-8%	35µM*	-6%	-8%	Cc1ccc(S(=O)(=O)NN=C2CCC(C(C)(C)C)CC2)cc1[N+](=O)[O-] (stereo not given)
-13%	1.4µM*	14%	7.9µM*	1%	2%	CC(C)(C)C1CCC(=NNS(=O)(=O)c2ccc(Br)cc2)CC1 (stereo not given)
-8%	u	18%	7.1µM*	-6%	-5%	CCCC1CCC(=NNS(=O)(=O)c2ccc(C)c([N+](=O)[O-])c2)CC1 (stereo not given)

Later entries:
miR-21 reporter	ALDH1A1 inh	Sfp inh	G9a inh	LMNA splice mod	JMJD2E inh	structure
-3%	18µM*	-15%	22µM*	3%	-2%	Cc1ccc(S(=O)(=O)NN=C2C3CC4CC(C3)CC2C4)cc1[N+](=O)[O-]
x	x	x	2%[12.7 µM]	x	x	CN(Cc1ccc(OC(F)F)cc1)C(=O)C1CCN(S(=O)(=O)c2ccc3c(c2)OCCO3)CC1
-1%	4.5µM*	17%	3.5µM*	-2%	0%	CC1CCCC/C1=N\NS(=O)(=O)c1ccc(Br)cc1 (stereo not given)
-23%	10%	56µM*	u	x	-12%	COc1ccc(OC)c(C(=O)c2c(C)oc3cc([N+](=O)[O-])c(O)c([N+](=O)[O-])c23)c1
-7%	x	x	-3%[59 µM]	x	x	COc1ccc(OC)c(NC(=O)CN2CCCN(Cc3ccccc3Cl)S2(=O)=O)c1
-12%	2.2µM*	10µM*	0.71µM*	-1%	13µM*	CC1(C)Cc2[nH]c(=S)c(C#N)cc2CO1
-14%	8.9µM*	11µM*	1.4µM*	8%	1%	N#Cc1cc2c([nH]c1=S)CCCC2
-14%	-2%	17%	11%	u	10%	CC(C)(C)OC(=O)NCCc1nnc(SCc2ccccc2Cl)o1
u	2.8µM*	-6%	6%[59 µM]	u	-2%	CC(C)(C)OC(=O)NCCc1nnc(S(=O)(=O)Cc2ccc(Cl)cc2Cl)o1
1%	1%	15%	2%	-1%[46 µM]	-7%	Cc1c(NC(=O)c2ccc(S(=O)(=O)N(C)c3ccccc3)cc2)c(=O)n(-c2ccccc2)n1C

Next part.
miR-21 reporter	ALDH1A1 inh	Sfp inh	G9a inh	LMNA splice mod	JMJD2E inh	structure
0%	28µM*	45µM*	3.2µM*	11%	5%	COc1cc(C(=S)N2CCOCC2)cc(OC)c1OC(=O)Cc1ccc(F)cc1
4%	x	28µM*	x	x	x	COc1cc(C(=S)N2CCOCC2)cc(OC)c1OC(=O)c1ccc(F)cc1
-2%	x	x	-29%[59 µM]	0%[46 µM]	x	COc1ccccc1CNc1ncnc2c1c(-c1ccccc1)cn2-c1ccc(Br)cc1
24%	-10%	-9%	u	u	u	Cc1[nH]n(-c2ccccc2)c(=O)c1C=Nc1cccc2cccnc12
-11%	5.6µM*	-92%	x	12%	5.6µM*	Cc1[nH]n(-c2ccccc2)c(=S)c1C=Nc1cccc([N+](=O)[O-])c1
x	u	-30%	6%[0.501 µM]	u	x	Cc1ccccc1-c1cc(N(C)Cc2ccco2)ncn1
x	25µM*	32µM*	-24%[0.501 µM]	2%	x	CN(Cc1ccco1)c1cc(-c2ccoc2)ncn1
x	u	56µM*	-26%[0.501 µM]	28%	x	Cc1noc(C)c1-c1cc(N(C)Cc2ccco2)ncn1

Some of the entries so far, with each value named:
Cc1noc(C)c1-c1cc(N(C)Cc2ccco2)ncn1
- miR-21 reporter: x
- ALDH1A1 inh: u
- Sfp inh: 56µM*
- G9a inh: -26%[0.501 µM]
- LMNA splice mod: 28%
- JMJD2E inh: x
Cc1ccccc1-c1cc(N(C)Cc2ccco2)ncn1
- miR-21 reporter: x
- ALDH1A1 inh: u
- Sfp inh: -30%
- G9a inh: 6%[0.501 µM]
- LMNA splice mod: u
- JMJD2E inh: x
CN(Cc1ccco1)c1cc(-c2ccoc2)ncn1
- miR-21 reporter: x
- ALDH1A1 inh: 25µM*
- Sfp inh: 32µM*
- G9a inh: -24%[0.501 µM]
- LMNA splice mod: 2%
- JMJD2E inh: x
Cc1[nH]n(-c2ccccc2)c(=S)c1C=Nc1cccc([N+](=O)[O-])c1
- miR-21 reporter: -11%
- ALDH1A1 inh: 5.6µM*
- Sfp inh: -92%
- G9a inh: x
- LMNA splice mod: 12%
- JMJD2E inh: 5.6µM*
